Results from US8552041B2, “Therapeutic approaches for treating alzheimer disease and related disorders through a modulation of cell stress response” (Pharnext, priority 2008, dated 2013).

System: Human Brain Microvascular Endothelial Cells (HBMEC)
Assay: Capillary network length in human Aβ1-42 intoxicated HBMEC on matrigel
Type: cell-based
Conditions: 1 hr pre-treatment, VEGF 10 nM, FIG. 3A
Method: Human brain microvascular endothelial cerebral cells (HBMEC, ScienCell Ref: 1000, frozen at passage 10) were rapidly thawed in a waterbath at +37° C. The supernatant was immediately put in 9 ml Dulbecco's modified Eagle's medium (DMEM; Pan Biotech ref: P04-03600) containing 10% of foetal calf serum (FCS; GIBCO ref 10270-106). […]
The following conditions were assessed: • Negative Control: medium alone+0.1% DMSO • Intoxication: amyloid-β1-42 (2.5 μM) for 18 h • Positive control: VEGF-165 (10 nM) (1 reference compound/culture) 1 hr before the Aβ1-42 (2.5 μM) addition for a 18 h incubation time. • Test compounds: Test compound I hr before the Aβ1-42 (2.5 μM) addition for a 18 h incubation time. Capillary Network Quantification
Per well, 2 pictures with 4× lens were taken using InCell Analyzer™ 1000 (GE Healthcare) in light transmission. […] The total length of capillary network was assessed.
All values are expressed as mean±s.e.mean of the 3 cultures (n=6 per condition). […] Indeed, the amyloid toxicity was taken as the 100% and the test compound effect was calculated as a % of this amyloid toxicity. […]

## VEGF
  Capillary network compared to amyloid intoxication: +78%
